This data set in a line: Gravimetric solubility in water. In kind it is physicochemical. On the procedure: The solubility in water of the salts was measured using a gravimetric solubility protocol.
1 ml of water was charged into crystallisation tubes. The solid was weighed into a tared glass vial, added in portions to the solutions and the vial weighed after each addition until a hazy solution was observed. The amount in mg was then calculated to give the solubility in mg/ml.
The solubility in water of the salts was measured using a gravimetric solubility protocol. Thus, 1 ml of water was charged into crystallisation tubes. The solid was weighed into a tared glass vial, added in portions to the solutions and the vial weighed after each addition until a hazy solution was observed. The amount in mg was then calculated to give the solubility in mg/mL.

Molecules are shown by their SMILES.

`CN(C)CCNC(=O)c1ccc(-c2ccc(-c3ccc(Cl)cc3)n2-c2ccccc2C(F)(F)F)cc1.O=C(O)C(O)C(O)C(=O)O` [Tartrate Pattern B, (R)-4-[5-(4-chlorophenyl)-1-[2-(trifluoromethyl)phenyl]pyrrol-2-yl]-N-[2 (dimethylamino)ethyl]benzamide tartrate]: the Solubility in water was found to be 7500 µg/mL.

The values are drawn from patent US20220348565A1, “PHARMACEUTICAL COMPOUNDS” (SENTINEL ONCOLOGY LIMITED, priority 2019, published 2022).
